In patent publication US20230330254A1 (Regeneron, published 2023) one finds EC50 data, which are given here for one molecule.

As usually defined, the EC50 is the concentration that produces a half-maximal response. Read a high EC50 as lower potency in that assay.

The assay addresses T1, full-length cynomolgus GLP1R on HEK293/CRE-Luc/mfGLP1R cells (cynomolgus, UniProt F8V479 24-463).
T1 construct: whole, on cells
Description: flow cytometry, mfGLP1R cells. Background: In flow cytometry, cells or beads pass a laser one at a time.

B1: REGN8072 (antibody, human IgG4 S228P, kappa, V domains shown)
VH: QVQLVESGGGVVQPARSLRLSCAASGFAFSRSAMHWVRQAPGKGLEWVAVISYDGSNKYYTDSVKGRFTISRDNSKNTLYLQMNTLRAEDTALYYCAKMYTTMDSFDYWGQGTLVTVSS
VL: DIQLTQSPSFLSASVGDRVTITCWASQGISSYLAWYQQKPGKAPKLLIYAASTLQSGVPSRFSGSGSGTEFTLTISSLQPEDFALYYCQQLNSYPRTFGQGTKVEIKR
notes: IgG4; Q-tag on light chain N-terminus; also called mAb 4; REGN8072 unconjugated Ab
Take B1: the EC50 stood at 1.09 nM.
